Test system: MX-1 human mammary tumor
Test: Anti-tumor effects in mice, subcutaneous MX-1 tumor implant
Settings: for Tumor-Free: tumor-free/animals
Description: Female, 7 weeks old NCr-nu athymic nude mice were purchased from Charles River Laboratories (Raliegh, NC) and acclimated in the laboratories one week prior to experimentation. The animals were housed in microisolator cages, at five per cage, in a 12-hour light/dark cycle. The animals received filtered sterilized water and sterile rodent food ad libitum. Animals were observed daily, and clinical signs such as tumor shrinkage were noted.
Tumor Model. Thirty- to forty mg fragments of MX-1 human mammary tumor were implanted subcutaneously in mice near the right axillary area, using a 12-gauge trocar needle and allowed to grow. Tumors were allowed to reach 75-196 mg in weight (75-196 mm^3 in size) before the start of treatment.
Drug Treatment. Compound 3 was administered intraperitoneally for five consecutive days at dosages of 55, 75, and 100 mg/kg/dose. Compound 3 was formulated fresh daily at a concentration of 10mg/mL in 5% EtOH/45% propylene glycol/50% PBS. Dosing solutions were administered to mice within 4 hours of formulation. Compounds were administered by exact body weight, with the injection volume being 0.1mL/10g body weight.
Tumor measurements. The tumors were measured, and the animals were weighed twice weekly, starting with the first day of treatment. Tumor volume was determined by caliper measurements (mm) and using the formula for an ellipsoid sphere L x W^2/2=mm^3, where L and W refer to the larger and smaller dimensions collected at each measurement. This formula was also used to calculate tumor weight, assuming a unit density (1 mm^3 = 1 mg).
Study duration was 28 days after tumor implantation. Any animal whose tumor reached 4 g in weight was sacrificed prior to study termination.

[1] = 55 mg/kg/dose intraperitoneally for five consecutive days
[2] = 75 mg/kg/dose intraperitoneally for five consecutive days
[3] = 100 mg/kg/dose intraperitoneally for five consecutive days

## O=P(OCCO)(N(CCCl)CCCl)N(CCCl)CCCl
[1]
  Days to Doubling: 7.2 days
  Tumor Regression Complete Regression: 0
  Tumor Regression Partial Regression: 0
  Tumor-Free: 0/8
[2]
  Days to Doubling: 8.1 days
  Tumor Regression Complete Regression: 0
  Tumor Regression Partial Regression: 0
  Tumor-Free: 0/8
[3]
  Days to Doubling: 7.7 days
  Tumor Regression Complete Regression: 0
  Tumor Regression Partial Regression: 0
  Tumor-Free: 0/8
